# Literature values in patent US20100158973A1 (HADASIT MEDICAL RESEARCH SERVICES & DEVELOPMENT LlIMITED, priority 2006, published 2010).
# Sequences of proteins named here, by UniProt entry; tags and fusion partners are left off.
# UniProt P34972, whole entry: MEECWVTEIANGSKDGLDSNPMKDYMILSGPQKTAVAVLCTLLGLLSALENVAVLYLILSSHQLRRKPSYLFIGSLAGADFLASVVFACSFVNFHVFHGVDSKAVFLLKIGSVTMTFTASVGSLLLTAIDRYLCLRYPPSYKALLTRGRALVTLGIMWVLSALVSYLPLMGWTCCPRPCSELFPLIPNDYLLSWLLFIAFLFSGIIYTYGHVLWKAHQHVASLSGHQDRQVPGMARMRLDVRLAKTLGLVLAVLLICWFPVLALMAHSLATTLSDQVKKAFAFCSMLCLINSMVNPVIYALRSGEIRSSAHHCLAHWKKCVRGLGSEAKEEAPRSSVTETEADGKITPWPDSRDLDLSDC
# Target: CB2 receptors (Homo sapiens, UniProt P34972)
# Settings: literature reference 10; cited from earlier work
substance,measurement,value
Cannabidiol [CBD],binding to CB2 receptors,binds very weakly
